According to patent US20210171464A1 (OLON S.P.A., priority 2017, published 2021):

Assay: solubility in organic solvents and water
Format: physicochemical
Conditions: various organic solvents and water; compared with the 6 crystalline forms of WO2006/037043

CC(C)COc1ccc(CNC(=O)N(Cc2ccc(F)cc2)C2CCN(C)CC2)cc1.CC(C)COc1ccc(CNC(=O)N(Cc2ccc(F)cc2)C2CCN(C)CC2)cc1.O=C(O)C(O)C(O)C(=O)O [N-(4-fluorobenzyl)-N-(1-methylpiperidin-4-yl)-N′-(4-(2-methylpropyloxy)-phenylmethyl)carbamide hemitartrate]
solubility: better solubility
